{"sequences": {"note": "Sequences of proteins named here, by UniProt entry; tags and fusion partners are left off. A change or cut given only in a name is not applied to a line headed by its entry.", "UniProt P37231": "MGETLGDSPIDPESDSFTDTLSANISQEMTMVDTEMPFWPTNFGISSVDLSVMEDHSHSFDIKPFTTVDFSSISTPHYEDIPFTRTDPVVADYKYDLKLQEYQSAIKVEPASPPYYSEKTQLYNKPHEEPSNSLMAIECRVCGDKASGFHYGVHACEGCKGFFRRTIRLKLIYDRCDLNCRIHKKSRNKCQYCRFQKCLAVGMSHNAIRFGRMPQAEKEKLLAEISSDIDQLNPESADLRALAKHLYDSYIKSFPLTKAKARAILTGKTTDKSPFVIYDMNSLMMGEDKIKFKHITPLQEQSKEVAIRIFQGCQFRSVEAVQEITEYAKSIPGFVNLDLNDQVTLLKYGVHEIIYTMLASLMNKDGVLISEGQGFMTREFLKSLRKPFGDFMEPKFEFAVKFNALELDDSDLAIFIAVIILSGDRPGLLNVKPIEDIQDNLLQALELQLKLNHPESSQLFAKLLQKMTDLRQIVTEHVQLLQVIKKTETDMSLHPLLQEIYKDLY"}, "source": "ChEMBL document CHEMBL1151554", "about": "“Non thiazolidinedione antihyperglycaemic agents. 1: -Heteroatom substituted -phenylpropanoic acids” (Bioorg Med Chem Lett, 1996)", "target": "Peroxisome proliferator-activated receptor gamma (Homo sapiens, UniProt P37231)", "data": [{"smiles": "COC(=O)C(Cc1ccc(OCCN(C)c2nc3ccccc3o2)cc1)SC", "note": "(centres undefined)", "values": [{"measurement": "Ki", "value": 600, "unit": "nM"}]}, {"smiles": "CN(CCOc1ccc(CC(Cl)C(=O)O)cc1)c1nc2ccccc2o1", "note": "(centres undefined)", "values": [{"measurement": "Ki", "value": 33, "unit": "nM"}]}, {"smiles": "COC(Cc1ccc(OCCN(C)c2nc3ccccc3o2)cc1)C(=O)O", "note": "(centres undefined)", "values": [{"measurement": "Ki", "value": 15, "unit": "nM"}]}, {"smiles": "COC(=O)CCc1ccc(OCCN(C)c2nc3ccccc3o2)cc1", "values": [{"measurement": "Ki", "value": 6000, "unit": "nM"}]}]}
